Laboratory results: patent publication US10501458B2, “Substituted bicyclic fused ring compounds as indoleamine-2,3-dioxygenase inhibitors” (Merck Sharp & Dohme Corp., priority 2015, dated 2019)

The chains behind the UniProt entries cited, without tags or fusion partners.
UniProt P48775, whole entry: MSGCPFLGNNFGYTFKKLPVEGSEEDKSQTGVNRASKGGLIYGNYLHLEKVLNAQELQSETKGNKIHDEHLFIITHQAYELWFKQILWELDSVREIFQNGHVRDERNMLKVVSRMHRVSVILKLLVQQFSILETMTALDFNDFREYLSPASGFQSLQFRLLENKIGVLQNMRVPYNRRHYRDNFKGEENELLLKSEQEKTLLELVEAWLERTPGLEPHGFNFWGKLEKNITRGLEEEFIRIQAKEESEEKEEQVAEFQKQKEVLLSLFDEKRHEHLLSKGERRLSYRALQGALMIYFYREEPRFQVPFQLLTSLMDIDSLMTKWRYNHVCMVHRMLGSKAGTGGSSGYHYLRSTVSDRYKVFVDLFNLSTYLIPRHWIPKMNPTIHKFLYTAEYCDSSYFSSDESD
UniProt P14902, whole entry: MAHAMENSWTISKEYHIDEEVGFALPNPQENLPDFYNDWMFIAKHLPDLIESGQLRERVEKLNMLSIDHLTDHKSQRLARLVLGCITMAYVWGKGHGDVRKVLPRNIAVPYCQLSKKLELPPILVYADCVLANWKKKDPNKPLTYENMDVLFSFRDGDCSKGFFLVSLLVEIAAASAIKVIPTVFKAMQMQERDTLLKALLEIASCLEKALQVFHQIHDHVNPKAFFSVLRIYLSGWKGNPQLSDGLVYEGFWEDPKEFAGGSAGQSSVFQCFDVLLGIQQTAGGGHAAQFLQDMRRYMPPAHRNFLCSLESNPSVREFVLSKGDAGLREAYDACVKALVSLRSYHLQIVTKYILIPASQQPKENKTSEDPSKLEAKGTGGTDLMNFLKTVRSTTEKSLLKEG

Tests used:
TDO = TDO (Homo sapiens (Human), UniProt P48775); test: A172 kynurenine cell-based assay; settings: A172 human glioblastoma cells, 500 μM L-tryptophan, 48 hours
Experimental: (§1) Exemplary compounds of the invention were prepared, and tested to determine their effect as TDO and/or IDO inhibitors. Two different assays were employed: 1. a cell-based assay for detecting the effect of test compounds on kynurenine production in two different cancer cell types. This assay utilised cancer cells which expressed either TDO or IDO and as such was used as a means of testing compound activity at these two enzymes in a cell-based context. 2. a TDO and IDO biochemical coupled assay which utilised recombinantly produced and purified TDO and IDO enzymes in combination with the enzyme formamidase. This coupled enzyme system allowed conversion of N-formylkynurenine produced by TDO or IDO activity to kynurenine which was then quantified by fluorescence following addition of Erhlich's Reagent The protocols for these are set out below.
(§2) Cell Based Assay for Detection of Kynurenine Produced by TDO and/or IDO
(§3) A172 (human glioblastoma) and SKOV3 (human ovarian adenocarcinoma) cells were seeded in a 96 well plate at 30,000 or 40,000 cells per well respectively in phenol red-free RPMI supplemented with 10% FCS, 2 mM L-glutamine and 500 μM L-tryptophan. IDO expression was induced in the SKOV3 cells by the addition of 500 ng/ml IFN-γ. […] The Erhlich's reagent was incubated for 5 minutes before the absorbance was read at 490 nm.

IDO [1] = target: T1, IDO (Homo sapiens (Human), UniProt P14902); test: SKOV3 kynurenine cell-based assay (IDO induced by IFN-γ); settings: SKOV3 human ovarian adenocarcinoma cells, 500 ng/ml IFN-γ, 500 μM L-tryptophan, 48 hours
Experimental: as §1, §2, §3

IDO [2] = target: T1, IDO; test: hIDO biochemical coupled assay; settings: 45 μM L-tryptophan, 17 minutes at room temperature
Experimental: as §1
TDO and IDO Biochemical Coupled Assay
Recombinant human IDO or TDO was incubated in 50 mM KPO4 (pH 7.0), 0.5 mM EGTA, 0.5 mM EDTA, 0.05% Triton™ X100, 20 mM ascorbate, 10 μM methylene blue, 500 U/ml catalase, 50 μg/ml KynB (kynurenine formamidase). […] After incubation for 17 minutes at room temperature the reactions were stopped by the addition of Erhlich's reagent and incubated at room temperature for 5 minutes before the fluorescence was read (Ex 475, Em530).

In the case of `CS(=O)(=O)N1CCC(Nc2cc(Cl)cn3cncc23)CC1`, the “A172 Kynurenine cell based assay, pIC50” value (TDO) was “+ (+ = pIC50 4.00-4.49)”, the “SKOV3 Kynurenine cell based assay, pIC50” value (IDO [1]) was “+/− (+/− = pIC50 <4.00)” and the “hIDO biochemical assay, pIC50” value (IDO [2]) was “+ (+ = pIC50 4.00-4.49)”.
